# Test results reported in article PMC12563520, “Asiatic Acid from Centella asiatica as a Potent EGFR Tyrosine Kinase Inhibitor with Anticancer Activity in NSCLC Cells Harboring Wild-Type and T790M-Mutated EGFR” (Biomolecules, 2025).
# How the values were obtained:
# [1] = tested on: p-ERK (Thr202/Tyr204) in A549 cells; experiment: Western blot of p-ERK, A549; type: cell-based, human; details: A549, 10 μM, 24 h, vs DMSO
# Protocol: (§1) Cells were plated at 200,000 cells/well in a 6-well plate and allowed to adhere for 24 h. They were then treated with the tested compound at varying concentrations for 24 h. For A549 cells, treatment was performed in serum-free medium for 24 h, followed by stimulation with 100 ng/mL human EGF for 10 min prior to harvesting. Cells were harvested by trypsinization, lysed in RIPA buffer [50 mM Tris-HCl (pH 7.4), 150 mM NaCl, 1% NP-40, 1% Na-deoxycholate, and 0.1% SDS] with protease and phosphatase inhibitors, and incubated on ice for 30 min. Lysates were centrifuged, and protein concentration was determined using the Bradford assay. Equal amounts (30 μg) were separated by 10% SDS-PAGE and transferred to a […] membrane (Immobilon®-P, Merck Millipore, Burlington, MA, USA). The membrane was blocked with 5% skim milk in 1X TBST and incubated overnight at 4 °C with primary antibodies (Table S2) diluted 1:1000 in 1% skim milk-TBST or 1% BSA-TBST. […] Protein signals were detected using Luminata^TM Crescendo Western HRP Substrate (Merck Millipore) and imaged with an ImageQuant 800 system (GE Healthcare Bio-Sciences, Uppsala, Sweden). […] The detected signal was quantified using Image Studio Lite (version 5.2, LICORbio^TM, Lincoln, NE, USA).
# [2] = tested on: p-Akt (Ser473) in A549 cells; experiment: Western blot of p-Akt, A549; type: cell-based, human; details: A549, 10 μM, 24 h, vs DMSO
# Protocol: as §1
structure (smiles),measurement,setting,value
"C#Cc1cccc(Nc2ncnc3cc(OCCOC)c(OCCOC)cc23)c1 [Erlotinib, reference compound]","p-ERK expression (fold), Mean",[1],0.287 fold
same,"p-ERK expression (fold), Mean",[1]; listed as erlotinib,significantly (p < 0.0001) reduced
same,"p-Akt expression (fold), Mean",[2],0.360 fold
same,"p-Akt expression (fold), Mean",[2]; listed as erlotinib,significantly (p < 0.0001) reduced
